These are literature values, as cited in patent EP0818443B1, “Mercaptoketones and mercaptoalcohols, a process for their preparation and their use as inhibitors of matrix metalloproteinases” (American Cyanamid Company, priority 1996, dated 1998).

The target in the data set is T1, human collagenase (Homo sapiens, UniProt P03956).
T1 sequence (P03956 100-469): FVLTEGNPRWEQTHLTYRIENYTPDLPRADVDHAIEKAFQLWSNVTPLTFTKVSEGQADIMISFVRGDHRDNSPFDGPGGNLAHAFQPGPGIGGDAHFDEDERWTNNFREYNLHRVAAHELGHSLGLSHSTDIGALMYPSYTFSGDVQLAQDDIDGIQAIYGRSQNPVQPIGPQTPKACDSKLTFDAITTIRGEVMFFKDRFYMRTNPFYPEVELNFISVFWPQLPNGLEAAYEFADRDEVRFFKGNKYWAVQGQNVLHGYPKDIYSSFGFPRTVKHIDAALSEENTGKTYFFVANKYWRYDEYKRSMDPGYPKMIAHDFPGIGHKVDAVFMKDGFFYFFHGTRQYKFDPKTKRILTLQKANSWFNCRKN
The settings on record: SSR isomer; cited from earlier work.

By IC50 is commonly meant the concentration at which inhibition is half-maximal. On to `CNC(=O)[C@H](Cc1ccc(OC)cc1)NC(=O)[C@H](CC(C)C)[C@@H](S)CC(=O)OCc1ccccc1`, for which the IC50 is 2 nM.
